Laboratory results published in patent publication US4122199A, “Amides of pyrrolidinoethylamine which can be used in treatment of coughs” (Pierre Fabre S.A., priority 1976, dated 1978).

Test system: mice
Assay type: in vivo
Settings: isotonic aqueous solution, hydrochloride
Experimental: It is determined on mice, the products being administered orally, intraperitoneally, and intraveneously in isotonic aqueous solution.

Structure (SMILES): O=C(NCCN1CCCC1)C(c1ccccc1)c1ccccc1 [F 1459, N(2'-pyrrolidino-ethyl)-α,α-diphenyl acetamide hydrochloride]
- DL 50 intraperitoneal: 178 mg/kg

Counter-ions that a name gives are not always drawn.
